# Source: patent US20090131503A1, “3,5 - SUBSTITUTED INDOLE COMPOUNDS HAVING NOS AND NOREPINEPHRINE REUPTAKE INHIBITORY ACTIVITY” (priority 2007, published 2009)
# Where a name gives a salt, the structure may show the parent alone.
# Target: T1, Nitric oxide synthase (neuronal, human recombinant) nNOS (Homo sapiens, UniProt P29475)
# T1 construct: purchased Axxora LLC ALX-201-068
# Assay: nNOS (human) enzyme assay, [3H]-L-arginine to L-citrulline conversion
# Assay type: biochemical
# Settings: Table 3
row,SMILES,IC50 [µM]
1,"CNC1CCCC(c2c[nH]c3ccc(NC(=N)c4cccs4)cc23)C1 (racemic) [(±)-8, N-(3-(3-(methylamino)cyclohexyl)-1H-indol-5-yl)thiophene-2-carboximidamide]",0.309
2,"CNC1CCCC(c2c[nH]c3ccc(NC(=N)c4cccs4)cc23)C1 (single isomer, unassigned) [(±)-7, N-(3-(-3-(Methylamino)cyclohexyl)-1H-indol-5-yl)thiophene-2-carboximidamide]",0.49
3,"CNC1CCCC(c2c[nH]c3ccc(NC(=N)c4cccs4)cc23)C1 (single isomer, unassigned) [Compound 7a, N-(3-(3-(Methylamino)cyclohexyl)-1H-indol-5-yl)thiophene-2-carboximidamide dihydrochloride [(+)-cis-enantiomer]]",0.57
4,"CNC1CCCC(c2c[nH]c3ccc(NC(=N)c4cccs4)cc23)C1 (single isomer, unassigned) [Compound 7b, N-(3-(3-(Methylamino)cyclohexyl)-1H-indol-5-yl)thiophene-2-carboximidamide dihydrochloride [(−)-cis-enantiomer]]",1.37

# Target: T2, Nitric oxide synthase (endothelial, human recombinant) eNOS (Homo sapiens, UniProt P29474)
# T2 construct: purchased Axxora LLC ALX-201-070
# Assay: eNOS (human) enzyme assay, [3H]-L-arginine to L-citrulline conversion
# Assay type: biochemical
# Settings: Table 2; compounds tested as hydrochloride salts
row,IC50 [µM],SMILES
1,216,"CCN[C@H]1CC[C@H](c2c[nH]c3ccc(NC(=N)c4cccs4)cc32)CC1 (single isomer, unassigned) [Compound 5a, trans-N-(3-(4-(Ethylamino)cyclohexyl)-1H-indol-5-yl)thiophene-2-carboximidamide]"
2,17.8,"CCN[C@H]1CC[C@@H](c2c[nH]c3ccc(NC(=N)c4cccs4)cc32)CC1 (single isomer, unassigned) [Compound 5b, cis-N-(3-(4-(Ethylamino)cyclohexyl)-1H-indol-5-yl) thiophene-2-carboximidamide]"
3,6.24,"CN[C@H]1CC[C@H](c2c[nH]c3ccc(NC(=N)c4cccs4)cc32)CC1 [Compound 1b, N-(3-(4-(Methylamino)cyclohexyl)-1H-indol-5-yl)thiophene-2-carboximidamide]"

row,SMILES,IC50 [µM]
1,"CNC1CCC(c2c[nH]c3ccc(NC(=N)c4cccs4)cc23)CC1 (mixture of isomers) [Compound 1, N-(3-(4-(methylamino)cyclohexyl)-1H-indol-5-yl)thiophene-2-carboximidamide]",26.9
2,"CCNC1CCC(c2c[nH]c3ccc(NC(=N)c4cccs4)cc23)CC1 (mixture of isomers) [Compound 5, N-(3-(4-(ethylamino)cyclohexyl)-1H-indol-5-yl)thiophene-2-carboximidamide]",40.8
